# Source: patent publication US8603990B2, “Grafted macromolecular conjugates of doxorubicin with anticancer activity and method of their preparation” (priority 2006, dated 2013)
# Tested on: mouse T cellular lymphoma EL4
# Details: 1×15 mg/kg DOX equivalent i.v. on day 9
# Description: The in vivo experiments involved a model of mouse T cellular lymphoma EL4, the experimental animals were mice (males) of the B/6 species that were subcutaneously implanted with 10^5 tumor cells on day 0. The conjugates were applied intravenously in a dose of 1×15 mg/kg of DOX equivalent. This single application was carried out on the ninth day after the tumor cells transplantation, i.e. at a time when the tumor was palpable, about approx. 400 mm^3 in size.
substance,measurement,value
poly(HPMA-co-MA-AH-NHNH2-co-MA-AH-NHN=DOX-co-MA-AH-SS—)-graft-[(SS)-poly(HPMA-co-MA-AH-NHNH2-MA-AH-NHN=DOX)] [Conjugate 3a],Weight decrease as a sign of toxicity,no weight decrease
